In the test the target is TAMRA-labelled ERM_(38–68) F47L (human) (UniProt P41161). The test is described as follows: fluorescence polarisation.

This passage reports Kd results from publication PMC4538835.

B1: MED25 ACID/PTOV domain (residues 391 to 548) (domain or fragment)
chain: GQQSVSNKLLAWSGVLEWQEKPKPASVDANTKLTRSLPCQVYVNHGENLKTEQWPQKLIMQLIPQQLLTTLGPLFRNSRMVQFHFTNKDLESLKGLYRIMGNGFAGCVHFPHTAPCEVRVLMLLYSSKKKIFMGLIPYDQSGFVNGIRQVITNHKQVQ
The term Kd denotes the equilibrium constant for the complex coming apart. Higher therefore signals a looser complex. B1 displayed a Kd of 2600 nM.
